Laboratory results reported in PubChem BioAssay AID1461 (National Center for Advancing Translational Sciences (NCATS), 2008).
The list shows a part of the results, in another mix than the full data. Records with an inconclusive call do not appear. The source made the active and inactive calls. Calls follow the shape of the dose curve; as a rule, active = well fitted inhibition curve with a large enough effect; inconclusive = small, poorly fitted or top-dose-only effect, or effect the other way; inactive = no such curve, though single readings can be large or run the other way.

Sequences of proteins named here, by UniProt entry; tags and fusion partners are left off. A change or cut given only in a name is not applied to a line headed by its entry.
UniProt Q6W5P4: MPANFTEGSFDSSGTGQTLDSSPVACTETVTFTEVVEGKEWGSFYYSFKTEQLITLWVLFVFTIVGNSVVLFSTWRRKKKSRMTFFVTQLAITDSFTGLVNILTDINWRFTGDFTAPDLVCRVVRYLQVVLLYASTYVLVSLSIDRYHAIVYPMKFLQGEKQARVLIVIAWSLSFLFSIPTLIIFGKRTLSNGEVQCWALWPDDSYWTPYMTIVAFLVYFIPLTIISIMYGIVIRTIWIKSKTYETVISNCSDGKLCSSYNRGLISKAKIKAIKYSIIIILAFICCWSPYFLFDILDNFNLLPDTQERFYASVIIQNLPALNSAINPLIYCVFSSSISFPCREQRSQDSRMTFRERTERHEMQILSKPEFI

Target: Neuropeptide S receptor (Homo sapiens) (UniProt Q6W5P4)
Experiment: qHTS Assay for Antagonists of the Neuropeptide S Receptor: cAMP Signal Transduction; also: nearly all actives have a fitted effect of over 50% in size
Settings: CHO-NPSR cells, cAMP TR-FRET, antagonist mode
[1] = at 38.3 µM (top of the series) unless noted
% is scaled to controls: 0 for no effect and ±100 for the full control effect.

`O=P(Nc1nccs1)(Oc1ccccc1)Oc1ccccc1` was tested, and the activity change, negative = inhibition [1] was inactive: 6.2%.

For `Nc1ccccc1[As](=O)(O)c1ccccc1`, the activity change, negative = inhibition [1] was inactive: -20.4%.

With `O=C(O)COc1ccc([As](=O)(O)O)cc1[N+](=O)[O-]` the activity change, negative = inhibition [1] was inactive: 4.61% [at 7.67 µM].

With `CCCOP(=S)(Nc1nc(N)cc(=O)[nH]1)OCCC` the activity change, negative = inhibition [1] was inactive: 2.4%.

For `Nc1cccc2c([As](=O)(O)O)cccc12`, the activity change, negative = inhibition [1] was inactive: -6.47%.

For `Cc1ccc(NCCc2c([N+](=O)[O-])cc([N+](=O)[O-])cc2[N+](=O)[O-])cc1`, the activity change, negative = inhibition [1] was inactive: -0.665% [at 46.1 µM].

With `COc1cc(C2NCCC3(OCCO3)C2(C)C)cc(OC)c1OC` (configuration not stated) the activity change, negative = inhibition [1] was inactive: 12.7%.

`CCOP(=O)(Nc1cccc2ccccc12)OCC` was tested, and the activity change, negative = inhibition [1] was inactive: 0.695%.

For `COc1cc(C(=O)NCC2(N3CCOCC3)CCCCC2)cc(Cl)c1OC(C)C`, the activity change, negative = inhibition [1] was inactive: -34.7%.

With `O=[As](O)(O)c1cccnc1` the activity change, negative = inhibition [1] was inactive: -15.1%.

For `O=C(OC1CN2CCC1CC2)c1ccc(Cl)cc1` (configuration not stated), the activity change, negative = inhibition [1] was inactive: -3.13% [at 7.67 µM].

In the case of `CN(C(=O)Cc1ccc(Cl)c(Cl)c1)[C@@H]1CC[C@]2(CCCO2)C[C@H]1N1CCCC1`, the activity change, negative = inhibition [1] is reported as inactive: -2.94% [at 46.1 µM].

In the case of `O=[As](O)(c1cccc(O)c1)c1cccc(O)c1`, the activity change, negative = inhibition [1] is reported as inactive: -4.17%.

With `Cc1cccc(OCC(=O)OC2CN3CCC2CC3)c1` (configuration not stated) the activity change, negative = inhibition [1] was inactive: 6.47% [at 46.1 µM].

With `O=[As](O)(c1ccccc1Br)c1ccccc1Br` the activity change, negative = inhibition [1] was inactive: -12.2%.

For `CC(C)/C=N\N=C(\N)N[N+](=O)[O-]`, the activity change, negative = inhibition [1] was inactive: 20.3%.

For `CN(C(=O)Cc1ccc(Cl)c(Cl)c1)[C@@H]1CCCC[C@H]1N1CCCC1`, the activity change, negative = inhibition (at 38.3 µM (top of the series)) was inactive: -10.8% and the activity change, negative = inhibition (at 46.1 µM (top of the series)) was inactive: 10.6%.

With `CN(CCCl)Cc1cc(Cl)c(NC2=NCCN2)c(Cl)c1` the activity change, negative = inhibition [1] was inactive: -11.2% [at 46.1 µM].

For `CCOP(=O)(Nc1ccc(C)cn1)OCC`, the activity change, negative = inhibition [1] was inactive: 15%.

In the case of `O=P1(Nc2ccccn2)COc2ccccc2OC1`, the activity change, negative = inhibition [1] is reported as inactive: -5.46% [at 46.1 µM].

With `Clc1n[nH]nc1-c1nn[nH][15n]1` the activity change, negative = inhibition [1] was inactive: -5.47% [at 46.1 µM].

In the case of `CC(C)(C)C(=O)NC(Sc1ncccn1)C(Cl)(Cl)Cl` (configuration not stated), the activity change, negative = inhibition [1] is reported as inactive: -4.2%.

For `O=P1(Nc2ncccn2)COc2ccccc2OC1`, the activity change, negative = inhibition [1] was inactive: 12.6% [at 46.1 µM].

With `O=P1(Nc2ccc(Br)cn2)COc2ccccc2OC1` the activity change, negative = inhibition [1] was inactive: -8.1% [at 46.1 µM].

For `O=[As](O)(c1cccs1)c1cccs1`, the activity change, negative = inhibition [1] was inactive: 15.6%.

With `Cc1ccc(OCC(=O)OC2CN3CCC2CC3)cc1` (configuration not stated) the activity change, negative = inhibition [1] was inactive: -3.71% [at 46.1 µM].

For `Nc1cccc([As](=O)(O)c2ccccc2)c1`, the activity change, negative = inhibition [1] was inactive: -23.8%.

For `Cc1nn(-c2ccccc2)c2c1P(=O)(N1CCOCC1)N(C)C(c1ccccc1)=N2` (configuration not stated), the activity change, negative = inhibition [1] was inactive: -7.01% [at 46.1 µM].

`CC1CCC(C(C)C)C(OP(=O)(Nc2ccccn2)c2ccccc2)C1` (configuration not stated) was tested, and the activity change, negative = inhibition [1] was inactive: -59.8%.

For `O=C(/C=C/c1ccccc1)OC1CN2CCC1CC2` (configuration not stated), the activity change, negative = inhibition [1] was inactive: -14.3%.

In the case of `CN(C)C1(CNC(=O)c2ccc(S(C)(=O)=O)cc2)CCCCC1`, the activity change, negative = inhibition [1] is reported as inactive: -11.1%.
